Assay results reported in publication PMC4007151 (Nature communications, 2013).

Protein sequences, listed by entry. Tags and fused reporters are not part of them. Lines headed by an entry give the natural chain unless they say otherwise; changes in a name come on top.
UniProt O43189: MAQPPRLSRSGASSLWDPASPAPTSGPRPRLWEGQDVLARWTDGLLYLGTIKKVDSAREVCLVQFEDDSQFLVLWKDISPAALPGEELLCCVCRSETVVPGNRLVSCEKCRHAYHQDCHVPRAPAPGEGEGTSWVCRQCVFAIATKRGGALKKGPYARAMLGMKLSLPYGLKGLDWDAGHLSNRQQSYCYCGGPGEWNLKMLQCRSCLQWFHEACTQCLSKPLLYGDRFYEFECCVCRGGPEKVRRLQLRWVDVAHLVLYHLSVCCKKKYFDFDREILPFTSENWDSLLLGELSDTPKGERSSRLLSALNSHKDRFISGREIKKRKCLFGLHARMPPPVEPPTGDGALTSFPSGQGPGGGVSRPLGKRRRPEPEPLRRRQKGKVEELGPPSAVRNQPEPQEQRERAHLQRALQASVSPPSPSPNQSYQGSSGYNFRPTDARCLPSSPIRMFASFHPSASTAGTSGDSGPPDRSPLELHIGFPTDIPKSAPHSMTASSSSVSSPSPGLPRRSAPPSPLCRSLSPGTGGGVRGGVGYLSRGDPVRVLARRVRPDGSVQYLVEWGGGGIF

Legend:
[1] = molecular target: PHF1 Tudor domain (wild type, GST tag cleaved) (human) (UniProt O43189); experiment: NMR titration
[2] = molecular target: GST-fusion PHF1 Tudor domain (wild type) (human) (UniProt O43189); experiment: pull-down

## H3KC36me3-nucleosome core particle (complex)
[1]
  average decrease in resonance intensity at a 1:1 molar ratio: 80%
[2]
  Kd: 1300 nM
